{
  "sequences": {"note": "By UniProt entry, the sequences of proteins in these tests, tags left out.", "UniProt Q99720, whole entry": "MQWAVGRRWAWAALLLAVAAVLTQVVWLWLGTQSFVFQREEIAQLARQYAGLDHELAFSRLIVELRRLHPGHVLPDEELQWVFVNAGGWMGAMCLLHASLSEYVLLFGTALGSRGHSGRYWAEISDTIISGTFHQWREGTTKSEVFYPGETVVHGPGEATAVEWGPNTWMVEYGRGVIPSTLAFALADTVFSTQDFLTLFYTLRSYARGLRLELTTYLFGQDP"},
  "source": "BindingDB's records for 2172538",
  "biological_target": "Sigma non-opioid intracellular receptor 1 (Homo sapiens, UniProt Q99720)",
  "assay": "Binding affinity for sigma opioid receptor using [3H](+)-3-PPP as radioligand",
  "data": [
    {"smiles": "CN(C(=O)Cc1ccc(Cl)c(Cl)c1)[C@@H]1CCCC[C@@H]1N1CCCC1", "values": [
      {"measurement": "IC50", "value": 194, "unit": "nM"}
    ]}
  ]
}
